For the data set the following is noted: Patient 2; NaPBA 600 mg/kg per day.

Consider sodium phenylbutyrate [NaPBA], for which the PAA levels is 530 µg/L, the “PAA:PAGN ratio” value is more than 2.5 and the PAGN levels turned out to be 178 µg/L.

Values taken from patent US9561197B2 (Horizon Therapeutics, LLC, priority 2012, dated 2017).
